Results on four molecules are retold here after US20230183354A1 (IMMIOS HOLDING B V, published 2023).

Chains of the proteins cited; added tags and fusions are not shown. Residues count along the entry.
UniProt P38570, 19-1124 limits assumed, chain 1 of 2: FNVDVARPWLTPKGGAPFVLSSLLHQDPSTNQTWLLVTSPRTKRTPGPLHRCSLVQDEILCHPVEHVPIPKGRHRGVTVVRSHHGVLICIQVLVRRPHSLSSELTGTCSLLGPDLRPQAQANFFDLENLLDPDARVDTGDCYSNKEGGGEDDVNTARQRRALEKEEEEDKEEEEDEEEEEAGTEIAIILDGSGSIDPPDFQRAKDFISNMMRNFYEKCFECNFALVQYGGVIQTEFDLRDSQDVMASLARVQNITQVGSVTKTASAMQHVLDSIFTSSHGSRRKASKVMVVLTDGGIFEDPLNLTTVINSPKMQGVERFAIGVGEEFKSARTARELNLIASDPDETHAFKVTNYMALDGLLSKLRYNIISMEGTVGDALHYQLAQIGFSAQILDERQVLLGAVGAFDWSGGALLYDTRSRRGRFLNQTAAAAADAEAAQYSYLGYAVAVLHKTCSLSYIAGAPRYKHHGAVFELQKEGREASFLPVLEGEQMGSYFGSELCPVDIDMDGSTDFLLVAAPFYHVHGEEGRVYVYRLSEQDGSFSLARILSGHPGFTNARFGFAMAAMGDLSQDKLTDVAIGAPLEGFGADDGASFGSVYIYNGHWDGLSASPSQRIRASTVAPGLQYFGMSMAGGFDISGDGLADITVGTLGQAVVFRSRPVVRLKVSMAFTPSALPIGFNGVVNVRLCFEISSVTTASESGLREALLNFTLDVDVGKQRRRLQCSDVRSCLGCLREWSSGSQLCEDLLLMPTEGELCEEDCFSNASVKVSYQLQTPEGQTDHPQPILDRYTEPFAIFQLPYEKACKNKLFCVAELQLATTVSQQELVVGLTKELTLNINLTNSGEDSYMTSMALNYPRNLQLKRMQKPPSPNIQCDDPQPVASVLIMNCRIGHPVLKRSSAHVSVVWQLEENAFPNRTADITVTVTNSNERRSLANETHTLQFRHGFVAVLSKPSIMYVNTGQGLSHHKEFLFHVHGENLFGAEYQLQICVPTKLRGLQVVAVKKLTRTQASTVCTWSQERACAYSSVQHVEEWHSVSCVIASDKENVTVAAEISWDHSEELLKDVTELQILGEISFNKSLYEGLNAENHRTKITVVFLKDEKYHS
UniProt P38570, 19-1179 limits assumed, chain 1 of 2: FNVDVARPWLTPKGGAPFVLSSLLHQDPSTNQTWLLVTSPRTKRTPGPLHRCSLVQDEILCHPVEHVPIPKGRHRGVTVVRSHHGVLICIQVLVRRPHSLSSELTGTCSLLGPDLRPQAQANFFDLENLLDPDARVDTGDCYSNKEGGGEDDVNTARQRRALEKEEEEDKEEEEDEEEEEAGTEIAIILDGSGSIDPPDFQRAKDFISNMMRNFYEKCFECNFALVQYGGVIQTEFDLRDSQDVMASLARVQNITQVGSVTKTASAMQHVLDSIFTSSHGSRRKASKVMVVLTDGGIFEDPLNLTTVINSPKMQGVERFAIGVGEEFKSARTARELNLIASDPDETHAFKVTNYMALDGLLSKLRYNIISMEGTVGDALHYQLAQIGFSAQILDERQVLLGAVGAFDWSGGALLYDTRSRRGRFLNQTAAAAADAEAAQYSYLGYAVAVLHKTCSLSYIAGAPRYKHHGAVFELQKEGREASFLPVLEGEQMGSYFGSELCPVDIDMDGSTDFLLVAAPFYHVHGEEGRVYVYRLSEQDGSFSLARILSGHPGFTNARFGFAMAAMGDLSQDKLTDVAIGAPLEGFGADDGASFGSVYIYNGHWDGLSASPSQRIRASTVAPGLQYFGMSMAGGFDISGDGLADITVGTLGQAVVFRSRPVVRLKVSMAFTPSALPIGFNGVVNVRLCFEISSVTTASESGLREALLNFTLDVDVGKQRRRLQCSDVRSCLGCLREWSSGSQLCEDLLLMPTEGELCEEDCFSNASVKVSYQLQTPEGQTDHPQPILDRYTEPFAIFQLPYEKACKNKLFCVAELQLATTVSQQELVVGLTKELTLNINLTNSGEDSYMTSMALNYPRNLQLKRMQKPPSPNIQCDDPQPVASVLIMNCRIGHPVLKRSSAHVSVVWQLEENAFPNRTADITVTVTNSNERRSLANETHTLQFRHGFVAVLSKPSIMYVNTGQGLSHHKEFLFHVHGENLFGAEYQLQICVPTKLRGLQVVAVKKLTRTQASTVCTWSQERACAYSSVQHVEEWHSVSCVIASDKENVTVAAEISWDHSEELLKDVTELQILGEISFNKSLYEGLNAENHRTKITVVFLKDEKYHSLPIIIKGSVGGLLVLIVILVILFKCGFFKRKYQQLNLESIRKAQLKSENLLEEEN
recombinant hCD103/hBeta7 Fc-protein (Acro-Biosystems), UniProt P26010, 20-723 limits assumed, chain 2 of 2: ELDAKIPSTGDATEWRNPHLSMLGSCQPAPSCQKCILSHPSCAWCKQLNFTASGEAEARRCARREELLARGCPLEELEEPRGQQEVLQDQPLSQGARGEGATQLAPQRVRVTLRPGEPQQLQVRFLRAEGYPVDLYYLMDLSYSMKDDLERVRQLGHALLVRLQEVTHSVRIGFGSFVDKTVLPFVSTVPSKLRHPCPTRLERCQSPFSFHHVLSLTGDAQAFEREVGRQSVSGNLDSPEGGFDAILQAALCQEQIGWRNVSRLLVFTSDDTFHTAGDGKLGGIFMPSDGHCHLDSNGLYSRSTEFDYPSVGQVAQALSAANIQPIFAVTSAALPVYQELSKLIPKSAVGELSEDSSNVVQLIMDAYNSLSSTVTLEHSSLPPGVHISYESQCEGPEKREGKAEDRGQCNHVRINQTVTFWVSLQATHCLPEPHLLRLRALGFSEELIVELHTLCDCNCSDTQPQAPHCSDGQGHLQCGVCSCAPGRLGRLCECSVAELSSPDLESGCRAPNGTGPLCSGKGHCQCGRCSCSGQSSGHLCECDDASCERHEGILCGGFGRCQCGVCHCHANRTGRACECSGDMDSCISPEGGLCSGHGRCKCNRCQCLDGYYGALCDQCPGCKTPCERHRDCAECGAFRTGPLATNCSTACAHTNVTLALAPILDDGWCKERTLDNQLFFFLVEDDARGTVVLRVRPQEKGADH
human CD103 (integrin Alpha-E) / human integrin Beta-7 heterodimer on cells, UniProt P26010, 20-798 limits assumed, chain 2 of 2: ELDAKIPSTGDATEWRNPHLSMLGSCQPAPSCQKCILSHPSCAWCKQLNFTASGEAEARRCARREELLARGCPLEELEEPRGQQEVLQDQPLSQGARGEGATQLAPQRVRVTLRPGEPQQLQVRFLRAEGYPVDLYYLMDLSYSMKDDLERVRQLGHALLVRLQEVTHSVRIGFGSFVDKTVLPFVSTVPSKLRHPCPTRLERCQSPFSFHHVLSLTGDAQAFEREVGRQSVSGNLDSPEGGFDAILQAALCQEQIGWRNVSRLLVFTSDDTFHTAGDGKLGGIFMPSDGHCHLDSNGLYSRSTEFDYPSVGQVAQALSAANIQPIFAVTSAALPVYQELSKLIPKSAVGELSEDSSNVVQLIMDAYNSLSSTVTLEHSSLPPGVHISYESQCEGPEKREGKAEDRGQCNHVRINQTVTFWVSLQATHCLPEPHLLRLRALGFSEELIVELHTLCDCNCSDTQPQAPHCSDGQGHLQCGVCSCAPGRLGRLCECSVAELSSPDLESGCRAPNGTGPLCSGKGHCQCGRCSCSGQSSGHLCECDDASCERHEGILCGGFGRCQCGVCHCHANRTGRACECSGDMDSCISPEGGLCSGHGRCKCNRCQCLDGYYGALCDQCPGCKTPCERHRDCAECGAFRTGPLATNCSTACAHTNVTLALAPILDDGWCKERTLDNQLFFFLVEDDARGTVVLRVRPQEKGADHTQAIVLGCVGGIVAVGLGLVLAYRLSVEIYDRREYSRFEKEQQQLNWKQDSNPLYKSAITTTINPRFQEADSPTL

The target in test [1] is T1, recombinant hCD103/hBeta7 Fc-protein (Acro-Biosystems) (human, UniProt P38570 19-1124; P26010 20-723, limits assumed).
T1 construct: Bought protein with no catalog number and no construct limits printed; also called recombinant human CD103/Beta7; recombinant hCD103/beta7; not shown: fusion part of the bought 'Fc-protein'
The experiment in a line: ELISA on coated recombinant human CD103/beta7 Fc-protein, OD450-620, lower right panel titled rhCD103/beta7. As to the method:
Protein coated 96-well plates were blocked in protein-free blocking buffer (Pierce) for 1.5 hour at 37° C. Plates were washed and incubated for 1 hour at RT with mAb/Fab in 0.1% Tween-20 in PBS. Next, plates were washed with PBS-T and incubated for 1 hour at RT with goat-anti-mouse IgG-HRP conjugate (Southern Biotech) for mAbs, and goat-anti-human Fab-HRP conjugate (Jackson Immuno Research) for the Fab fragments in 0.1% Tween-20 in PBS. […] Reactions were stopped with 0.5 M H2SO4 and absorbances were read at 450 and 610 nm.
On the technique in general: An ELISA detects its analyte on a solid surface through an enzyme-linked reagent.

Test [2] concerns the target T2, human CD103 (integrin Alpha-E) / human integrin Beta-7 heterodimer on cells (human, UniProt P38570 19-1179; P26010 20-798).
T2 construct: the assay field tells which cells; also called hCD103/hBeta7; CHO.K1-hCD103/hBeta7
Briefly: flow cytometry, tumor digest OC433, AF647-conjugated Fab, direct read-out; Alexa647.mFab control Q3 1,29. How it is done:
(§1) Additional aliquots were stained with relevant isotype controls or as fluorescence minus one controls (“FMO” controls are cells stained with all the fluorophores minus one fluorophore; the relevant isotype controls contain either a directly labeled unspecific isotype antibody or an unspecific isotype antibody combined with secondary detection reagent). Percentage binding of fluorescently labeled mAbs was determined using flow cytometry. Maximum binding was set at 100%. […] Data analysis was performed with FlowJo v10 (Tree Star) and surface receptor levels were expressed as mean fluorescent intensity (MFI).
In general terms: In flow cytometry, cells or beads pass a laser one at a time.

Test [3] has as its target T2, human CD103 (integrin Alpha-E) / human …. The experiment in a line: flow cytometry, tumor digest OC433, non-labeled Fab with secondary anti-Fab reagent (APC); hFab control Q2 4,64, secondary antibody alone Q2 4,65. How it is done: as §1
Test [4] shares this target. Briefly: cell ELISA on CHO.K1-hCD103/beta7 cells, OD450-620, upper right panel.
Test [5] has the same target. Briefly: flow cytometry, tumor digest OC433, non-labeled Fab with secondary anti-Fab reagent (APC); hFab control Q3 3,71, secondary antibody alone Q3 2,44. How it is done: as §1
The target is the same in test [6]. The experiment in a line: flow cytometry, tumor digest OC433, AF647-conjugated Fab, direct read-out; Alexa647.mFab control Q2 2,58. As to the method: as §1
For test [7] the target is unchanged. The experiment in a line: cell ELISA on CHO.K1-humanCD103/beta7 cells, abs 450-610.
For test [8] the target is unchanged. The experiment in a line: cell-based ELISA on CHO.K1-hCD103/hBeta7 cells, Df-conjugated Fab, absorbance, lower left panel. As to the method:
(§2) Wells were washed with PBS and incubated with Rabbit anti-Mouse/IgG-HRP (1:4000, Dako) or Fab specific Goat anti-Human/IgG-HRP (1:4000; Sigma Aldrich) for 1 h at 37° C. Next, wells were washed with PBS and TMB substrate (KPL) was added. The color reaction was stopped by adding 1M HCl solution and the absorbance was measured by a microplate reader (Thermo Scientific).

Test [9] has the same target. The experiment in a line: cell-based ELISA on CHO.K1-hCD103/hBeta7 cells, absorbance, lower left panel. As to the method: as §2

B1: Fab.hCD103.05.C1 (Fab, V domains shown)
VH: EVQLQQSGPELEKPGASAKISCKASGYSFTGYNMNWVKQSNGKSLEWIGNIDPYYGGTSYNQKFKGKATLTVDKSSSTAYMQLKSLTSEDSAVYYCARSFYGYDAGSPYNYAMDYWGQGTPVTVSP
VL: DIVMTQSHKFMSTSVGDRVSITCKASQDVGTFVAWYQQKPGQSPKLLIYWASTRHTGVPDRFTGSGSGTDFTLTISNVQSEDLADYFCHQYSSYPYTFGGGTQLEIKR
Usually EC50 (read off the curve) stands for the concentration giving half of the maximal effect. Regarding B1, the “EC50 (read off the curve)” value in test [1] was about 0.05 µg/mL; in [4] it was about 0.1 µg/mL. In addition, the “% of cells in Q3 (CD8- CD103+)” value is 6.59% in [2] and 4.57% in [5]. Moreover, the figures for the “% of cells in Q2 (CD8+ CD103+)” value in test [3] and in test [6] were 12.5% and 12%, respectively.

B2: hCD103.05A (antibody, mouse IgG1, V domains shown)
VH: EVQLQQSGPELEKPGASAKISCKASGYSFTGYNMNWVKQSNGKSLEWIGNIDPYYGGTSYNQKFKGKATLTVDKSSSTAYMQLKSLTSEDSAVYYCARSFYGYDAGSPYNYAMDYWGQGTPVTVSP
VL: DIVMTQSHKFMSTSVGDRVSITCKASQDVGTFVAWYQQKPGQSPKLLIYWASTRHTGVPDRFTGSGSGTDFTLTISNVQSEDLADYFCHQYSSYPYTFGGGTQLEIK
notes: Also tested labelled with AF647, conjugated with Df and labelled with 89Zr; these are written under this molecule; also called clone 05A; hCD103.05 mAb
With B2, in test [7], the 50% effective concentration (EC50 (read off the curve)) was about 0.01 µg/mL.

B3: Fab.hCD103.01.C1 (Fab, V domains shown)
VH: EVQLQESGPSLVKPSQTLSLTCSVTGDSITSGYWNWIRKFPGNKLEYMGYITYSGSTYYNPSLKSRISITRDTSKNQYYLQLNSVTTEDTATYYCTRHYYGSDAMDYWGQGTSVTVSS
VL: DIVMTQSHKFMSTSVGDRVSITCKASQDVSIAVAWYQQRPGQSPKLLIYSASYRYTGVPDRFTGSGSGTDFTFTISSVQAEDLAVYYCQQHYSTPWTFGGGTKLEIKR
Take B3: the “EC50 (read off the curve)” value in test [1] was about 0.006 µg/mL; in test [4] it was about 0.01 µg/mL; in test [8] it was about 0.09 µg/mL; in test [9] it was about 0.09 µg/mL. The “% of cells in Q3 (CD8- CD103+)” value in test [2] is 3.83%; in test [5], 5.75%. Further, the “% of cells in Q2 (CD8+ CD103+)” value amounted to 12.3% in [3] and 12.4% in [6].

B4: Fab.hCD103.06.C1 (Fab, V domains shown)
VH: QVQLQQPGSELVRPGASVKLSCKASGYTFTSYWMHWVKQRHGQGLEWIGNIYPGSGSTNYDEKFKSKGTLTVDTSSSTAYMHLSSLTSEDSAVYYCTRGVYDNPYYFDYWGQGTTLTVSS
VL: DIQMTQSSSNLSVSLGGRVTITCKASDHINNWLAWYQQKPGNAPRVLISGATSLETGVPSRFSGSGSGKDYTLSITSLQTEDVATYYCQQYWSIPLTFGAGTKLELKR
For B4, the “% of cells in Q3 (CD8- CD103+)” value in test [2] came to 0.21%; in [5], 2.94%. The “% of cells in Q2 (CD8+ CD103+)” value in test [3] stood at 8.12%; in test [6] it was 4.51%.
